Measurements from patent publication US20100069304A1, “PROTECTIVE EFFECTS OF INHIBITING THE INTERACTION OF CALMODULIN AND MUTANT HUNTINGTIN PROTEIN” (priority 2008, published 2010).

Sequences of proteins named here, by UniProt entry; tags and fusion partners are left off. A line that says so, or that is headed by a name, gives the form on record, which may keep a tag or linker.
UniProt P42858, with tags, fused parts or gaps limits assumed, stated change not applied: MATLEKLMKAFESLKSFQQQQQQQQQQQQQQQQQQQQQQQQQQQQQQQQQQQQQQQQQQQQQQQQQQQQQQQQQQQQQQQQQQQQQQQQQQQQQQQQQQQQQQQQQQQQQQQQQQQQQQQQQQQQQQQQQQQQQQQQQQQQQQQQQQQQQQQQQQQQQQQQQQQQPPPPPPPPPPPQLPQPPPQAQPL

Experiments:
[1] = target: T1, mutant huntingtin (htt-N63-148Q) (Homo sapiens, UniProt P42858, INS26QQQQQQQQQQ/INS27QQQQQQQQQQ/INS28QQQQQQQQQQ/INS29QQQQQQQQQQ/INS30QQQQQQQQQQ/INS31QQQQQQQQQQ/INS32QQQQQQQQQQ/INS33QQQQQQQQQQ/INS34QQQQQQQQQQ/INS35QQQQQQQQQQ/INS36QQQQQQQQQQ/INS37QQQQQQQQQQ/INS38QQQQQQQ); assay: TG-modified huntingtin (81D4 immunoprecipitation and immunoblot) in transfected HEK-293T cells; assay type: cell-based; conditions: HEK-293T cells with htt-N63-148Q, TG2 and CaM construct, compared to htt-N63-148Q, TG2 and vector (control)
T1 construct: myc; expressed in transfected cells; host or cells: HEK-293T

[2] = system: IP3R-mediated Ca^2+ release; assay: Carbachol-stimulated intracellular Ca2+ release (Fura-2) in transfected HEK-293T cells; assay type: cell-based, human; conditions: 60 μM carbachol, compared to htt-N63-148Q and TG2 expressing cells

decrease in TG-modified huntingtin [1]: ~2 fold
Substance: CaM-C-term: calmodulin fragment: last 72 amino acids, contains the third and fourth Ca2+ binding sites
carbachol-stimulated Ca^2+ release (in words) [2]: small decrease that did not reach statistical significance
